Measurements reported in ChEMBL document CHEMBL1146241, “Novel inhibitor for fibroblast growth factor receptor tyrosine kinase” (Bioorg Med Chem Lett, 2007).

By UniProt entry, the sequences of proteins in these tests, tags left out.
UniProt P11362, whole entry, looked up: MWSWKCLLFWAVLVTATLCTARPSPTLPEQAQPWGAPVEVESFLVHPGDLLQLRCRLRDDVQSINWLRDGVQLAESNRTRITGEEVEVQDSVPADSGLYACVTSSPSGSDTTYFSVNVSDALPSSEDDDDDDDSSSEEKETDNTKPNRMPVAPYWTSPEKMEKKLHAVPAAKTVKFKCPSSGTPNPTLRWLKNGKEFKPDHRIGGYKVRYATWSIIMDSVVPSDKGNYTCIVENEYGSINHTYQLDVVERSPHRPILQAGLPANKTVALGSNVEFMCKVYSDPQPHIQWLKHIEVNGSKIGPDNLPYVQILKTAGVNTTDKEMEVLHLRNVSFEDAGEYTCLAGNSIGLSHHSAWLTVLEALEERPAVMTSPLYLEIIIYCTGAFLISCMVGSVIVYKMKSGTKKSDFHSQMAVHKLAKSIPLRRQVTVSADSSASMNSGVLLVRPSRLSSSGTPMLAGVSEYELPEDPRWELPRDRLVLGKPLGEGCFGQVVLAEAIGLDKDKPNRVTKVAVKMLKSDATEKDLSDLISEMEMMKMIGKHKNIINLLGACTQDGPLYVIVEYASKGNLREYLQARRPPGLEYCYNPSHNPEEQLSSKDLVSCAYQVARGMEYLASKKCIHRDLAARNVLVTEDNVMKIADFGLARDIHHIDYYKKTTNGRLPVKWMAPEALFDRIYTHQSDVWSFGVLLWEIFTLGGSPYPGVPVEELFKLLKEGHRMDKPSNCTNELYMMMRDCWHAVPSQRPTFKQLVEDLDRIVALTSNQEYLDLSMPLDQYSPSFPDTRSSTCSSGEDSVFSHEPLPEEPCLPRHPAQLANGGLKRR

Target: Fibroblast growth factor receptor 1 (Homo sapiens, UniProt P11362)
Settings: HUVEC

Q: With `Cc1[nH]c(/C=C2\C(=O)Nc3cc(-c4ccccc4)ccc32)c(C)c1CCC(=O)O` as the compound, how does the MEC read?
A: 10 µM
